Reference: patent publication US20080138280A1, “Composition and Methods For Inhibiting Cell Survival” (The Cleveland Clinic Foundation, priority 2003, published 2008)

Test system: NF-κB DNA binding activity
Assay: NF-κB DNA binding activity in melanoma cells after IFN-β
Format: cell-based
Excerpt: This endogenous production further sensitized cells to administration of exogenous Apo2L/TRAIL. […] The anti-tumor effects of IFN-β and NO-Cbl are synergistic in vitro and in vivo. Treatment with NO-Cbl increased the expression of Apo2L/TRAIL, DR4 and DR5 mRNAs, and caspase-8 enzymatic activity, indicating activation of the extrinsic apoptotic pathway.

IFN-β: interferon-β, a cytokine
DNA binding activity of NF-κB: did not alter
